Test results from US20070071717A1, “Treatment of B cells with IL-21 and B cell activators induces Granzyme B production” (University of Iowa Research Foundation, priority 2005, published 2007).

Columns and labels:
Assay type in all cases: cell-based, human
B-CLL cells [1] = assay: Flow cytometric apoptosis / cell survival assay (Annexin V, PI) of B-CLL cells; conditions: combined with CpG ODN; IL-2 100 U/ml, 4 days
Procedure: Apoptosis and cell survival assay. Cells were harvested at the indicated time points by staining all cells from a given well with mAb for CD19, CD5 and FITC-labeled Annexin V (BD Biosciences, San Diego, Calif.). A predetermined number of calibration beads (CaliBRITE™ Beads, BD Biosciences, San Diego, Calif.) were then added to each sample to allow for normalization of cell counts in different samples at different time points.
Flow cytometric apoptosis assays. Cells were stained with Annexin V (BD Biosciences, San Diego, Calif.), or cell-permeable fluorogenic substrates specific for Granzyme B or Caspase 6 for 1 hour at room temperature according to the manufacturer's instructions (Oncolmmunin, Gaithersburg. Md.). A pre-determined number of calibration beads (CaliBRITE™ Beads, BD Biosciences, San Diego, Calif.) was added to each sample to allow for normalization of cell counts at different time points. Propidium iodide at 1 μg/ml was added just prior to flow cytometric analysis. The count of viable cells rather than the count of apoptotic cells was used for the calculation of cell survival because of concerns some non-viable cells may have undergone lysis and not have been available for counting. Absolute cell survival was expressed as percentage of viable cell counts relative to initial plating counts.

B-CLL cells [2] = assay: Granzyme B ELISpot assay with purified B-CLL cells; conditions: data not shown
Procedure: Elispot assays for human Granzyme B and Perforin. Human Granzyme B and human Perforin Elispot kits were purchased from Cell Sciences (Canton, Mass.). PVDF-bottomed 96-well plates were purchased from Millipore (Bedford, Mass.). The assays were performed according to the manufacturer's protocol. Briefly, plates were prepared by adding the capture antibody and blocking with 2% skim milk in PBS, then cells were resuspended in AIM-V medium, plated (100 μl/well), and CpG ODN (2.5 μg/ml), IL-21 (100 ng/ml) or both were added and cultured for 16 hours. Freshly isolated PBMC stimulated with PHA (10 μg/ml) for Granzyme B detection and PMA (1 ng/ml) plus lonomycin (500 ng/ml; all from Sigma, St. Louis, Mo.) for Perforin detection served as positive controls. After culture, the detection antibody was added and plates incubated for 1.5 hours. Streptavidin-alkaline phosphatase was distributed, and plates incubated for 1 hr. Finally BCIP/NBT buffer was added and color was allowed to develop for 10 minutes at room temperature followed by rinsing with distilled water. Plates were dried completely, and spots read on an Immunospot Series 1 Analyzer and counted using Immunospot 3 software, both from C.T.L. Cellular Technology Ltd. (Cleveland, Ohio).

B-CLL cells [3] = assay: Intracellular flow cytometry for Granzyme B, Granzyme A and Perforin in B-CLL cells; conditions: 18 hours, Brefeldin A for the last hours
Procedure: Flow cytometry. Antibodies to CD5, CD19, CD27 as well as CD107a were purchased from BD Bioscoences (San Diego, Calif.). IL-21 receptor protein expression was detected using a mAB (clone 152512) from R&D Systems (Minneapolis, Minn.). PKH26 staining was used to identify untreated cells in bystander assays. B-CLL cells were resuspended at a density of 1×10^7 cells/ml in diluent C containing 2 μM PKH26 (both from Sigma, Saint Louis, Mo.). After 3 minutes, the reaction was stopped by adding an equal volume of FBS (HyClone, Ogden, Utah). Subsequently cells were washed 3 times and finally resuspended in AIM-V medium. For flow cytometric Granzyme and Perforin detection, cells were incubated at 1×10^6/ml for 13 hrs, Brefeldin A (Epicentre Technologies, Madison, Wis.) added to a final concentration of […], and cells cultured for 5 more hours. Intracellular staining was performed using a Fix and Perm kit (Caltag Laboratories, Burlingame, Calif.) according to the manufacturer's instructions. Briefly, cells were washed once and resuspended in Fixation Buffer, incubated for 15 minutes at room temperature and washed with PBS. […] Flow cytometric analyses were performed on a FACScan (Becton Dickinson Immunocytometry Systems, San Jose, Calif.) and data analyzed using the program FlowJo (version 6.4.1, Tree Star Inc., Stanford, Calif.).

IL-2: IL-2 purchased from Peprotech, final concentration 100 U/ml
apoptosis of B-CLL cells, IL-2 in place of IL-21 (B-CLL cells [1]): did not induce apoptosis; also recorded: nor did it induce B-CLL cell apoptosis | Granzyme B secretion by B-CLL cells, IL-2 substituted for IL-21 (B-CLL cells [2]): did not induce secretion of Granzyme B | Granzyme B(+) B-CLL cells, flow cytometry gating on CD19(+) (B-CLL cells [3]): not induced

Entries after “also recorded” stand apart in the source; their conditions may differ.
